The record followed here is US20240293537A1, “A[…]-GRAFTED LAURYL GAMMA-POL[…] USE THEREOF” (JIANGSU ACADEMY OF AGRICULTURAL SCIENCES, priority 2021, published 2024).

Data set [1] deals with mouse macrophage RAW 264.7. The following applies: RAW 264.7, 24 h, FIP solution less than 1000 μg/mL.
The conditions of data set [2]: 20 mg in 3 mL of DMSO, ethanol, DMF and acetone.

As for “fluorescein-labeled amphiphilic imiquimod-grafted lauryl γ-polyglutamate [FIP]”, in data set [1], the “cell apoptosis / cell survival” value is “no cell apoptosis was observed”. In addition, the “solubility in solvent phase” value in data set [2] is listed as “dissolved completely”.
For the substance “amphiphilic imiquimod-grafted lauryl γ-polyglutamate [γ-PGA-R837-LA]”, in data set [2], the “solubility in solvent phase” value is given as “dissolved completely”.
